Patent US5324832A, “Muscarinic antagonists” (priority 1991, dated 1994)

Chains of the proteins cited; added tags and fusions are not shown. Lines headed by an entry give the natural chain unless they say otherwise; changes in a name come on top.
UniProt P08482: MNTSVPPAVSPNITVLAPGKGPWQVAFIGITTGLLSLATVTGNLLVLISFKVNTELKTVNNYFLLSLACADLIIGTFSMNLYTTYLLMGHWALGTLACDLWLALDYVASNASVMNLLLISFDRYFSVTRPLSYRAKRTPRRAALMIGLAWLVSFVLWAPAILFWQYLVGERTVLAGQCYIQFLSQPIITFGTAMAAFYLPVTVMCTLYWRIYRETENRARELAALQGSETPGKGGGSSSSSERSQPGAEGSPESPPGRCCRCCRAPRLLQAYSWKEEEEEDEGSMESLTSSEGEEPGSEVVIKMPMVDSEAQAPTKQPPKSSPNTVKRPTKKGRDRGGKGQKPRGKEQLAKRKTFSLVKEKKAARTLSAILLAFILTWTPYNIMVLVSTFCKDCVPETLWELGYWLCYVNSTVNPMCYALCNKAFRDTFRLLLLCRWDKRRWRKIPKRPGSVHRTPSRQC

Molecular target: m1 muscarinic receptors (Rattus norvegicus, UniProt P08482)
Assay type: binding
Procedure: To assay for irreversible inhibition in rat brain membranes, Scatchard analyses before and after treatment of the membranes with 26 were compared. Even a very […].
Aliquots of brain membranes were incubated with 1.0 mM of freshly dissolved 26 in phosphate-buffered saline (pH 8.0) for 60 min at room temperature, then centrifuged at 15,000 rpm for 10 min.
The resulting pellet was resuspended in 25 mL of fresh phosphate-buffered saline (pH 7.2) and centrifuged as above.

With `C[N+]1(C)C2CC(OC(=O)C(CO)c3ccccc3)CC1C1OC12` (stereo not shown) [[^3 H]NMS, [^3 H]N-methylscopolamine, reference compound] the “Bmax of [3H]NMS” value was 0.74 pmol/mg protein.
